Literature values in US10450593B2, “Type II fatty acid synthesis enzymes in reverse β-oxidation” (William Marsh Rice University, priority 2014, dated 2019).

Target: T1, FabI (Escherichia coli, UniProt P0AEK4)
T1 sequence (P0AEK4 1-262): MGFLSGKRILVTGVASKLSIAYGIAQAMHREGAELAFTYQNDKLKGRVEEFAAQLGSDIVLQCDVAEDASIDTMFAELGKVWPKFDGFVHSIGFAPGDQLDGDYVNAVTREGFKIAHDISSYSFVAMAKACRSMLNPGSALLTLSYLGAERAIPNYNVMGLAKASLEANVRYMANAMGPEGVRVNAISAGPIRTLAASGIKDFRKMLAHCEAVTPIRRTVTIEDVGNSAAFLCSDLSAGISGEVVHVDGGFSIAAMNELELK
Settings: literature, Helmut Bergler 1996; read-out: Ki towards FabI; cited from earlier work

palmitoyl-ACP
Ki: 5.4 µM
